Laboratory results from patent US7547783B2, “Transition metal complexes” (Shell Oil Company, priority 2004, dated 2009).

Assay: practical solubility of the transition metal complexes at ambient temperature
Settings: at 20° C.
Protocol: The practical solubility of the transition metal complexes was determined at ambient temperature in the inert atmosphere of the dry box.
1 mg of solid complex was contacted with 0.5 ml of benzene-D6 in an NMR-tube (5 mm external diameter) and gently swirled.

2-[1-(2,4,6-trimethylphenylimino)ethyl]-6-[1-(4-tert-butylphenylimino)ethyl]pyridine iron[II] chloride complex [Example 1, reference compound]
solubility in toluene or benzene-D6: < 1000 µg/mL
